Test results published in PubChem BioAssay AID488839 (Broad Institute, 2010).
The list shows a part of the results. Active and inactive are the calls of the source.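 How the source made its calls: active means highest replicate inhibition of at least 50% and at least 75% of replicates reaching 50%; inconclusive means only one of the two criteria met; inactive means both criteria failed.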

By UniProt entry, the sequences of proteins in these tests, tags left out. Where a name states a change or a piece, a line headed by the entry shows the natural chain unless it says otherwise.
UniProt Q00535, whole entry, looked up: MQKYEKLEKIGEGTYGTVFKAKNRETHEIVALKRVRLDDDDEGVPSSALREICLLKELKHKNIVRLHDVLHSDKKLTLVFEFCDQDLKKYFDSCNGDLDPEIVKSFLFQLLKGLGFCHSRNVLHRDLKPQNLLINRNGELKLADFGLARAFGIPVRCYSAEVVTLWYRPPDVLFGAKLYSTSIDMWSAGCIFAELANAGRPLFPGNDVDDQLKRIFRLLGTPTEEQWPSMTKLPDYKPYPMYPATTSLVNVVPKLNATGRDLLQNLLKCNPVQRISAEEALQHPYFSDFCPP
UniProt Q15078: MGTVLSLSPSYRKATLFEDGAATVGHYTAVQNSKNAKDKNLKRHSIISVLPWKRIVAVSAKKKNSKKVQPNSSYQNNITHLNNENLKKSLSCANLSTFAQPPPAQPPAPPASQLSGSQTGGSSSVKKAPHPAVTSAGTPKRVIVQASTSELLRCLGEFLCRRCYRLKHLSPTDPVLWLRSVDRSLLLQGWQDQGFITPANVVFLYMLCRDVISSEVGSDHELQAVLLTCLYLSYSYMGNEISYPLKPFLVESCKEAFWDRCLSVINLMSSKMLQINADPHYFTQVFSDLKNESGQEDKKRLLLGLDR

Molecular target: Cyclin-dependent kinase 5 (Homo sapiens) + Cyclin-dependent kinase 5 activator 1 (Homo sapiens) (UniProt Q00535+Q15078)
Assay: CDK5/p35 phosphotransfer blockade – biochemical, single concentration, primary screen (AID 488839);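 further: plate controls were DMSO neutral control for no effect and GW8510 at 10 µM for full effect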
Settings: Recombinant CDK5/p35, ADP-Glo luminescence, 60 min; at 10 µM; hits give high values

| SMILES | inhibition |
| --- | --- |
| Nc1ccc([As](=O)(O)c2ccc([N+](=O)[O-])cc2)cc1 | inactive: -0.167% |
| O=[As](O)(c1ccccc1)c1ccc(O)cc1 | inactive: 0.622% |
| O=[N+]([O-])c1ccc(O)c(/C=N/Nc2ccc([N+](=O)[O-])cc2[N+](=O)[O-])c1 | inactive: 0.404% |
| CC(=O)NC(SC(=S)N(C)C)C(Cl)(Cl)Cl (centres undefined) | inactive: -0.109% |
| O=[N+]([O-])c1ncn(CCn2cnc([N+](=O)[O-])n2)n1 | inactive: -0.243% |
| C[C@H]1OP(=O)(Oc2ccccc2)[C@H](O)[C@H](O)[C@H]1N=[N+]=[N-] (some centres undefined) | inactive: 1.94% |
| O=P(Nc1nc2ccccc2s1)(c1ccccc1)c1ccccc1 | inactive: -1.11% |
| O=P(Nc1ccccn1)(c1ccc(Br)cc1)c1ccc(Br)cc1 | inactive: -5.71% |
| CN(C)C1(CNC(=O)c2ccc(Cl)c(S(N)(=O)=O)c2)CCCCC1 | inactive: -0.646% |
| COc1ccc(N)c([N+](=O)[O-])c1[N+](=O)[O-] | inactive: -1.27% |
| O=C(O)CNc1ccc([As](=O)(O)O)cc1 | inactive: -0.464% |
| COC(=O)C1(C)COP(=O)(Nc2ccccc2)OC1 (centres undefined) | inactive: -0.572% |
| O=[N+]([O-])c1cccc(NC2=NCC(CBr)S2)c1 (centres undefined) | inactive: 3.01% |
| O=[N+]([O-])c1ncn(CCn2ncnc2[N+](=O)[O-])n1 | inactive: -0.449% |
| CC(C)(C)C(=O)NC(Sc1ccncn1)C(Cl)(Cl)Cl (centres undefined) | inactive: -0.313% |
| O=C(Nc1cc([As](=O)(O)O)ccc1O)c1ccccc1 | inactive: -0.151% |
| O=P1(N(CCCl)CCCl)OCCCS1 (centres undefined) | inactive: 0.609% |
| CC1CCN(C(=O)Oc2c(Cl)cc(Cl)c3cccnc23)CC1 | inactive: -0.958% |
| CN(C)C(=O)OCCc1n(C)cc[n+]1C | inactive: -4.16% |
| CC(C)=N/N=C(\N)N[N+](=O)[O-] | inactive: 2% |
| CCN(/C(=N/P(=O)(N1CCOCC1)N1CCOCC1)N1CCOCC1)c1ccc(OC)cc1 | inactive: -0.262% |
| C[N+]1=C2C=CC=CC=C2SC12C([N+](=O)[O-])=CC([N+](=O)[O-])=C[C-]2[N+](=O)[O-] (centres undefined) | inactive: 0.644% |
| Nc1ccc([As](=O)(O)c2ccc(N)cc2)cc1 | inactive: -1.14% |
| CCc1nc2c(n1)c1c(non1O)c1c2no[n+]1[O-] | inactive: 0.788% |
| O=[N+]([O-])c1cc([N+](=O)[O-])c(CCNc2ccccc2)c([N+](=O)[O-])c1 | inactive: 0.0262% |

| SMILES | inhibition |
| --- | --- |
| Cc1ccc(NP(=O)(Oc2ccccc2)Oc2ccccc2)nc1 | inactive: -0.879% |
| O=[N+]([O-])c1cccc2n[nH]nc12 | inactive: -0.115% |
| CC(=O)N1C2C3N(C(C)=O)C1C1N(C(C)=O)C(C(N1C(C)=O)N3C(C)=O)N2C(C)=O | inactive: 0.168% |
| COc1ccc(C2=NCC(CBr)S2)cc1 (centres undefined) | inactive: -0.913% |
| O=C(NC(Sc1ccncn1)C(Cl)(Cl)Cl)c1ccccc1 (centres undefined) | inactive: 1.19% |
| Oc1ccccc1CNc1ccccn1 | inactive: 0.966% |
| Nc1cc(N)c2nonc2c1[N+](=O)[O-] | inactive: 1.38% |
| CC(C)CC(=O)NC(Sc1ccc(Cl)cc1)C(Cl)(Cl)Cl (centres undefined) | inactive: 2.26% |
| CN1CCCC(OC(=O)C(c2ccccc2)c2ccccc2)C1 (centres undefined) | inactive: -5.25% |
| Clc1ccc(Cl)c(NC2=NCC(CBr)S2)c1 (centres undefined) | inactive: -1.01% |
| COc1ccccc1OP(=O)(Nc1ccc(C)cn1)Oc1ccccc1OC | inactive: 1.61% |
| Cc1ccc(N/C(=N/P(=O)(N2CCOCC2)N2CCOCC2)N2CCOCC2)cc1 | inactive: -8.74% |
| CN(C(=O)Cc1ccc(Cl)c(Cl)c1)[C@H]1CCCC[C@H]1N1CCCC1 | inactive: -1.31% |
| NC(=O)c1cc([N+](=O)[O-])cc([N+](=O)[O-])c1N | inactive: 3.85% |
| Nc1cccc2ccc([As](=O)(O)O)cc12 | inactive: -3.32% |
| CCN(N=Nc1nonc1N)c1nonc1N | inactive: 0.588% |
| Cc1ccc(NP(=O)(Oc2ccccc2F)Oc2ccccc2F)nc1 | inactive: -0.415% |
| CN(C(=O)Cc1ccc(Cl)c(Cl)c1)[C@H]1CCCC[C@@H]1N1CCCC1 | inactive: -0.00433% |
| Cc1cc(SC(NC(=O)c2ccc(F)cc2)C(Cl)(Cl)Cl)ncn1 (centres undefined) | inactive: 0.15% |
| CCOP(=O)(Nc1ccccc1)OCC | inactive: 0.465% |
| O=P(Nc1nc2ccc(Cl)cc2s1)(c1ccccc1)c1ccccc1 | inactive: 1.32% |
| CCCC1OP(N)(=O)OCC1CC (centres undefined) | inactive: -1.93% |
| CC(=O)Nc1ccc([As](=O)(O)O)cc1 | inactive: -3.6% |
| O=C(O)c1ccccc1[As](=O)(O)O | inactive: -1.57% |
